Earlier results, collected in patent US20060074108A1, “Matrix metalloprotease (MMP) inhibitors and their application in cosmetic and pharmaceutical composition” (Bioderm Research, priority 2004, published 2006).

Sequences of proteins named here, by UniProt entry; tags and fusion partners are left off. Residues count along the entry.
UniProt P14780, 94-707, species assumed: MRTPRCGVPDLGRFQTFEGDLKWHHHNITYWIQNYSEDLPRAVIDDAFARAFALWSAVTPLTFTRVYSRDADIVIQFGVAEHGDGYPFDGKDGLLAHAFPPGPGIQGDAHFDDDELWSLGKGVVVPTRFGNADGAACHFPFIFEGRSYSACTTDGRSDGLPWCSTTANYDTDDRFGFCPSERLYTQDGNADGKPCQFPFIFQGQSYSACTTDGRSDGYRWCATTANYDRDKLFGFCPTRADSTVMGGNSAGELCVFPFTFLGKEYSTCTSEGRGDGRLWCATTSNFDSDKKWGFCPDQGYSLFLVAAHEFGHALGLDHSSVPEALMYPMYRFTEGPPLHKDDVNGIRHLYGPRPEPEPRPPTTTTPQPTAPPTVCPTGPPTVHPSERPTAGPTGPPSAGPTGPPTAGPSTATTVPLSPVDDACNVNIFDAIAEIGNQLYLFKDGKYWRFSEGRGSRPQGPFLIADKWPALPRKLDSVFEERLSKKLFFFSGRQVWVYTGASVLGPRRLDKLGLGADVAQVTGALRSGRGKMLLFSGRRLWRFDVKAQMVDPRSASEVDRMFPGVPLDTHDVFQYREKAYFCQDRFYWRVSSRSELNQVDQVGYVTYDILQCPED

Molecular target: MMP-9 (Homo sapiens, UniProt P14780)
Conditions: MMP-13-selective compound; cited from earlier work

For `Cc1cc(C)c(N(Cc2ccccc2)S(=O)(=O)c2ccc(OCCNC(=O)c3cc4ccccc4o3)cc2)c(C(=O)NO)c1` [WAY-170523], the “selectivity against MMP-9” value is given as 56 fold.
